Experimental data reported in patent publication US20230172849A1, “INHALED STATINS FOR TREATMENT OF VIRAL RESPIRATORY DISEASES” (priority 2020, published 2023).

Test system: Calu-3 cells

## O=C([O-])C[C@H](O)C[C@H](O)/C=C/c1c(C2CC2)nc2ccccc2c1-c1ccc(F)cc1.O=C([O-])C[C@H](O)C[C@H](O)/C=C/c1c(C2CC2)nc2ccccc2c1-c1ccc(F)cc1.[Ca+2] [INS103, Pitavastatin Calcium]
pre-treated 6 or 24 hours, then DMSO containing medium 72 hours, working concentrations
  cell viability of Calu3 cells with no virus, pre-treatment: No loss of cell viability
Treated 72 hours, working concentrations (INS102 10, 1, 0.1 μM; INS103 5, 1, 0.2 μM)
  cell viability of Calu3 cells with no virus: No loss of cell viability
